Results on one molecule are retold here after ChEMBL document CHEMBL3091323, “Investigation of quinazolines as inhibitors of breast cancer resistance protein (ABCG2)” (Bioorg Med Chem, 2013).

Protein sequences, listed by entry. Tags and fused reporters are not part of them. Lines headed by an entry give the natural chain unless they say otherwise; changes in a name come on top.
UniProt Q9UNQ0: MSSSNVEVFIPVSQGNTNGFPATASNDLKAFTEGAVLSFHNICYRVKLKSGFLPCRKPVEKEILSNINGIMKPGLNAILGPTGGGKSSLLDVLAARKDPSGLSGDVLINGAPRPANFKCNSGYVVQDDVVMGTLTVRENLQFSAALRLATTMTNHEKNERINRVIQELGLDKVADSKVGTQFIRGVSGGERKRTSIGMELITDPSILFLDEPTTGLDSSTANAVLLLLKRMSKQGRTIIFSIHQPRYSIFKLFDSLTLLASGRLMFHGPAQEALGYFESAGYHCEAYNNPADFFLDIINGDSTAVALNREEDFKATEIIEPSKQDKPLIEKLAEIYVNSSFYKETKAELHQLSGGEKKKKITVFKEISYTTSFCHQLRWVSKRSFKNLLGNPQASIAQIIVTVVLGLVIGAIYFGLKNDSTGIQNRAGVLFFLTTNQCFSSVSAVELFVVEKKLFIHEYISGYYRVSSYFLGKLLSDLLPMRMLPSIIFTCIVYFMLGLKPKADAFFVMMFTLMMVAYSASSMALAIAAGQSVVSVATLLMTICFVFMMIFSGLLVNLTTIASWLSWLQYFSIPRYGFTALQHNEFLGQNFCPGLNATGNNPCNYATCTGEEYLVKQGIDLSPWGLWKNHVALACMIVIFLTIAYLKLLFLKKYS

The experiment deals with Broad substrate specificity ATP-binding cassette transporter ABCG2 (Homo sapiens, UniProt Q9UNQ0). The experiment is described as follows: Inhibition of human BCRP expressed in MDCK2 cells assessed as Hoechst 33342 accumulation treated 30 mins before Hoechst 33342 addition measured up to 120 mins by fluorescence assay. Format: cell-based, MDCK-II.

For orientation: IC50 means the concentration needed to halve the response being measured. Turning to `COc1cc2ncnc(Nc3ccc(F)c(Cl)c3)c2cc1OCCCN1CCOCC1` [GEFITINIB], the half-inhibitory concentration (IC50) was 3.19 µM.
